# Results: PMC12142581
# The chains behind the UniProt entries cited, without tags or fusion partners. Where a name states a change or a piece, a line headed by the entry shows the natural chain unless it says otherwise. Residues count along the entry.
# UniProt P43140: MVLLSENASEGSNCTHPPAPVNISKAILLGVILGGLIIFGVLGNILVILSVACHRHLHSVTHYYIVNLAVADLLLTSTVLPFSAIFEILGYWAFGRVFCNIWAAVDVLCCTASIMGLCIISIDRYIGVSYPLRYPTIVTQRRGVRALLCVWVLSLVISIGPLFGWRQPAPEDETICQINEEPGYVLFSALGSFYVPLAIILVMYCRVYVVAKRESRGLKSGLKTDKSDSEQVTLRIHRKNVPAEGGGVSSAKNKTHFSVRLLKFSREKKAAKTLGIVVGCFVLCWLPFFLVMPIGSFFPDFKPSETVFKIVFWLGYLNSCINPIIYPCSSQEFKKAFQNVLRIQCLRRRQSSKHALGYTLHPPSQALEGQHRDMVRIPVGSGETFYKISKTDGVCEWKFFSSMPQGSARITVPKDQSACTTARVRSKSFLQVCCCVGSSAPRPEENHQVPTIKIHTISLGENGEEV
# UniProt P15823, whole entry, looked up: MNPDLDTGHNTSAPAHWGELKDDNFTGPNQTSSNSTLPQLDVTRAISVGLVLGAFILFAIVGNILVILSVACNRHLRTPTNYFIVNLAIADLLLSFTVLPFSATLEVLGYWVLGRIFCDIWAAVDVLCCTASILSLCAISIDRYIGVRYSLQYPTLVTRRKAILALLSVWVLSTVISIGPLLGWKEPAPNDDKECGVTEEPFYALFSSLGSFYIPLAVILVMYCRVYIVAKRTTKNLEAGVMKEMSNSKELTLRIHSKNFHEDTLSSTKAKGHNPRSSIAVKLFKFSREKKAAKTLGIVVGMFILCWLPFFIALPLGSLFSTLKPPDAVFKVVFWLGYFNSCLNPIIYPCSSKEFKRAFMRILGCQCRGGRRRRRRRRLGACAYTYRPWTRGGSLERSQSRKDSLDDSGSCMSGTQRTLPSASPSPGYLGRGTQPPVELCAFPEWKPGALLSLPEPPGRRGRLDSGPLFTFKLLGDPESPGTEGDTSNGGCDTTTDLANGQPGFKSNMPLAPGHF
# UniProt P30411, whole entry, looked up: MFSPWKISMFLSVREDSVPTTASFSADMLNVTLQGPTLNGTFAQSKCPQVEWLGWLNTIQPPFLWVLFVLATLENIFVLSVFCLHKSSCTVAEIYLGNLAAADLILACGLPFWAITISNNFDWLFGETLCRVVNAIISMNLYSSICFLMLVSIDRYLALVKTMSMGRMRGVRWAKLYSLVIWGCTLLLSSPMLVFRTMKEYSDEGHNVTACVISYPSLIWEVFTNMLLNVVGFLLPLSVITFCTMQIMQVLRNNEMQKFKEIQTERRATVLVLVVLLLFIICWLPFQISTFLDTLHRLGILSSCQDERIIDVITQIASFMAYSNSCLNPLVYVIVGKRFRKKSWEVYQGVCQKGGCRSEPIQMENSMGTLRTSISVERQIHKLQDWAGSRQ
# UniProt P21728, whole entry, looked up: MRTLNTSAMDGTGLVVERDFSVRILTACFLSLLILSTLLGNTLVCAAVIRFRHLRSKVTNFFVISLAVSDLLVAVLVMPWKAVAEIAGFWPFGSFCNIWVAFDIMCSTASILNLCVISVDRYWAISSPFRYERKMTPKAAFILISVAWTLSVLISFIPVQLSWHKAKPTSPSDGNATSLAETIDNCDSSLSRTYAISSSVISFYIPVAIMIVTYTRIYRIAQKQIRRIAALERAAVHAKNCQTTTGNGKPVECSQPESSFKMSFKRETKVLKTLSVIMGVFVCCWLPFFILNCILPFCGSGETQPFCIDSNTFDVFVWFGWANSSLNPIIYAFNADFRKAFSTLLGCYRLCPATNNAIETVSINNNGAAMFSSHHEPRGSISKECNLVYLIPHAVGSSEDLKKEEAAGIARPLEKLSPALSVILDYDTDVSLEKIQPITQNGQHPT
# UniProt P25101, 21-427 limits assumed: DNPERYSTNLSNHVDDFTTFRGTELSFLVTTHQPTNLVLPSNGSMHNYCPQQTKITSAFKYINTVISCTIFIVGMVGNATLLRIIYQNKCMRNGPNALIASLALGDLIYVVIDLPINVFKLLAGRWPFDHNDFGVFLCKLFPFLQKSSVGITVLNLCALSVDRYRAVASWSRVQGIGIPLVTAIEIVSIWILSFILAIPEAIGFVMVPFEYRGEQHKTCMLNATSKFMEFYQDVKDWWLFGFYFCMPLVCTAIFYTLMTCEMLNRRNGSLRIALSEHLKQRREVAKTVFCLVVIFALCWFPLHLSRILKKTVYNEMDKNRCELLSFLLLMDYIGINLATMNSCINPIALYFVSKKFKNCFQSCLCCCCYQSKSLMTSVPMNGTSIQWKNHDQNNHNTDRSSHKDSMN
# UniProt Q9Y271: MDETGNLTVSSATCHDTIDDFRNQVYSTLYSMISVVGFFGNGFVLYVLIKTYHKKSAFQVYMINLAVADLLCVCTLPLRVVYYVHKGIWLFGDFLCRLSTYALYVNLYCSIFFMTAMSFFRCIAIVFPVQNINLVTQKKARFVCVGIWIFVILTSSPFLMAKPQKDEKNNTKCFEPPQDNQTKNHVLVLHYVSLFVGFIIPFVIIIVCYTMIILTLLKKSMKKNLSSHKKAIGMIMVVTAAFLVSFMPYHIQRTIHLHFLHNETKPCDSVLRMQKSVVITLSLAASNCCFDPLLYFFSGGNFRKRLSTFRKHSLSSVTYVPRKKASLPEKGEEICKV
# UniProt P48039, whole entry, looked up: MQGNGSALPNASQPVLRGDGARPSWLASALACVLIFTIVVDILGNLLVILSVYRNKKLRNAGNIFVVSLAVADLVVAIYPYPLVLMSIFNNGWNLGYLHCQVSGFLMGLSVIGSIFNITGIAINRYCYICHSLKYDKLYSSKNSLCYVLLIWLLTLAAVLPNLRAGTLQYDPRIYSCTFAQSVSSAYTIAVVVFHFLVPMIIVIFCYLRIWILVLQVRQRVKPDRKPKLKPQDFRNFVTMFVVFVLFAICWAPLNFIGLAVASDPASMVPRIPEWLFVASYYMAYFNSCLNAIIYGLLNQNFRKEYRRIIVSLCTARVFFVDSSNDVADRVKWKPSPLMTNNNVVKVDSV
# UniProt P20309, whole entry, looked up: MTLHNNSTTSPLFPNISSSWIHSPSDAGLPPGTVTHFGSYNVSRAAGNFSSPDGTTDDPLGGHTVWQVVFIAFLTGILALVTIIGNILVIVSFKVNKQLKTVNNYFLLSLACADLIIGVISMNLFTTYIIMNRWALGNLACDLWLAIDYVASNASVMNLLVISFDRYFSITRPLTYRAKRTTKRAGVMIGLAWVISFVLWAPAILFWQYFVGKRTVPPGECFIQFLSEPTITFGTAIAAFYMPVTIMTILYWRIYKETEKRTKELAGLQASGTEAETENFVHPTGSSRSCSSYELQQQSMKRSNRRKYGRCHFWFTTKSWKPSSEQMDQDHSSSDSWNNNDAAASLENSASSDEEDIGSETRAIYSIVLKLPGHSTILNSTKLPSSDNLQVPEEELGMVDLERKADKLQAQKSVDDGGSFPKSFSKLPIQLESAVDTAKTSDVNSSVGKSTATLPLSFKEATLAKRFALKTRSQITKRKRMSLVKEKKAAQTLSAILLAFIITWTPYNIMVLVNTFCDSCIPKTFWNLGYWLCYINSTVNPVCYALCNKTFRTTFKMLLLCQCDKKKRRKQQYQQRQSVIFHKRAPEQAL
# UniProt P25929, whole entry, looked up: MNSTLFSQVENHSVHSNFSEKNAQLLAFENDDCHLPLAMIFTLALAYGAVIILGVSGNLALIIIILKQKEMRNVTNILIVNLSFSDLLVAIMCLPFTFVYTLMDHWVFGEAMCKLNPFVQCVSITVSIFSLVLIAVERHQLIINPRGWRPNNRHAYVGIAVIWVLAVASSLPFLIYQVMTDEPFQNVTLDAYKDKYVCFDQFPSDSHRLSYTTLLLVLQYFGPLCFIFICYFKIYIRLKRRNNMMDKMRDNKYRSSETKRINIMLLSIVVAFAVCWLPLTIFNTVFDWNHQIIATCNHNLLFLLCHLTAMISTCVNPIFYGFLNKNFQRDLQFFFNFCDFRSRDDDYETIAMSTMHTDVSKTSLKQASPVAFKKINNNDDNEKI
# UniProt P25105: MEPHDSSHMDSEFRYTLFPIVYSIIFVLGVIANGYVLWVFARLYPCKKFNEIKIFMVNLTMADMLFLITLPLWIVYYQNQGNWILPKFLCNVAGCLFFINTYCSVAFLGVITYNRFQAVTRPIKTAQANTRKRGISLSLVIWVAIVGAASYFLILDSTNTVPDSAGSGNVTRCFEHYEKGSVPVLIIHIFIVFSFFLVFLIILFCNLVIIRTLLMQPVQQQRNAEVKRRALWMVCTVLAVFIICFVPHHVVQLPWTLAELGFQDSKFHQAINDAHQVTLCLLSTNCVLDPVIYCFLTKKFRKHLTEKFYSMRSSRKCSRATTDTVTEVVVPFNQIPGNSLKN
# UniProt P35408: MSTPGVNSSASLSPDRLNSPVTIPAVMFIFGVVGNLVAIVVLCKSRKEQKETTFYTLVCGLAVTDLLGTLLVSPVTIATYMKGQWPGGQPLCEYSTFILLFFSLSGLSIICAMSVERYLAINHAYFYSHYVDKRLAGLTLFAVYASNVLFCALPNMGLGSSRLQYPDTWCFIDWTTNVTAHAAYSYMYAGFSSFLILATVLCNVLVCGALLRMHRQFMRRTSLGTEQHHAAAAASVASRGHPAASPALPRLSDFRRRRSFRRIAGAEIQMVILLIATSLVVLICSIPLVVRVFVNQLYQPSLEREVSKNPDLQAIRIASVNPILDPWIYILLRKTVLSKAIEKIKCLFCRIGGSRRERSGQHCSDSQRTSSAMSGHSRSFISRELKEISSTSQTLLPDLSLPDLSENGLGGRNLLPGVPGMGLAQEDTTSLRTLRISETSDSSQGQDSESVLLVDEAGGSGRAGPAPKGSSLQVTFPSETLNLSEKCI
# UniProt P08908, whole entry, looked up: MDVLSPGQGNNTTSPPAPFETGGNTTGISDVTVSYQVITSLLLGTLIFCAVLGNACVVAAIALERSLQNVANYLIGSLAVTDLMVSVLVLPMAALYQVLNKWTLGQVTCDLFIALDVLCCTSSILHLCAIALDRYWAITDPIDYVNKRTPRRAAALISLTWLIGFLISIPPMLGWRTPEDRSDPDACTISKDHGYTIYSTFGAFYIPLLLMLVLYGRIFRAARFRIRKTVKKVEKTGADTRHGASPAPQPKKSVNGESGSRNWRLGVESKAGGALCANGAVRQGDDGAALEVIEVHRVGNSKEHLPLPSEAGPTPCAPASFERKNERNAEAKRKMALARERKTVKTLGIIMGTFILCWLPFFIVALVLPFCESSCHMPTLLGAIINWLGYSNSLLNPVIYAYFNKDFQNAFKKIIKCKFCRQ
# UniProt Q01959, whole entry, looked up: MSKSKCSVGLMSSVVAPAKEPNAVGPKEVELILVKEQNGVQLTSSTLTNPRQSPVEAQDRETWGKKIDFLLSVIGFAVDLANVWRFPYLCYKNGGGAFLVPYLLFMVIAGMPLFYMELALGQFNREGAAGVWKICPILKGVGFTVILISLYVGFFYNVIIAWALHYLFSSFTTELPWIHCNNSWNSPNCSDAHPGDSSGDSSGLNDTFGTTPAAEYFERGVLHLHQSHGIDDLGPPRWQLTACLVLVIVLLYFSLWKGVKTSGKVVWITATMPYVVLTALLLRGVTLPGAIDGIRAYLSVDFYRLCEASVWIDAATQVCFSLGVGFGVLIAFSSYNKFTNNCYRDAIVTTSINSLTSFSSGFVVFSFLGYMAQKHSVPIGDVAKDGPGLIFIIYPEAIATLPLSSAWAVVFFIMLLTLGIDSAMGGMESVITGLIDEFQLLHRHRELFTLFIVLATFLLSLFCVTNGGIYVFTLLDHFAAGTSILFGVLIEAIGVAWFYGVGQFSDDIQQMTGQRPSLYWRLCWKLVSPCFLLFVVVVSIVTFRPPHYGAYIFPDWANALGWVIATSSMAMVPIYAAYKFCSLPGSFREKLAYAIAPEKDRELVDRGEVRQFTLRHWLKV
# UniProt P31645, whole entry, looked up: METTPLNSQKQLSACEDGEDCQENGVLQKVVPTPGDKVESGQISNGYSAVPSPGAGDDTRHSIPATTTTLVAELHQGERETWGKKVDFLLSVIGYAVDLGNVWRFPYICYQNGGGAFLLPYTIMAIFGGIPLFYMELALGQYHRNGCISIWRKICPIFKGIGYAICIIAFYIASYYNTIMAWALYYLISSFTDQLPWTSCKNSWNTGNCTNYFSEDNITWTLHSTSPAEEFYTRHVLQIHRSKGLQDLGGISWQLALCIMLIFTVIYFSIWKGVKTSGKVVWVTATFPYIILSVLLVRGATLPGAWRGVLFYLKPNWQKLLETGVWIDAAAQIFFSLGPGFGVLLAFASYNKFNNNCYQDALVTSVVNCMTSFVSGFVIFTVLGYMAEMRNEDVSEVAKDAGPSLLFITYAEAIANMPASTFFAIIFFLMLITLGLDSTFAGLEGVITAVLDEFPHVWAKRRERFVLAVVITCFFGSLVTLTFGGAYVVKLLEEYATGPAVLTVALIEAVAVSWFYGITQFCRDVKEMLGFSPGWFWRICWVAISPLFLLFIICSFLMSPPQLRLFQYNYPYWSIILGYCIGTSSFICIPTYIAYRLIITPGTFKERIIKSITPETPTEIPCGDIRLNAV
# Tests used:
# Assay in all cases: Lead Profiling Screen
# Adenosine A1 = Adenosine A1 (Homo sapiens, UniProt P30542)
# Adenosine A2A = Adenosine A2A (Homo sapiens, UniProt P29274)
# Adrenergic α1A = Adrenergic α1A (Rattus norvegicus, UniProt P43140)
# Adrenergic α1B = Adrenergic α1B (Rattus norvegicus, UniProt P15823)
# Adrenergic β2 = Adrenergic β2 (Homo sapiens, UniProt P07550)
# Androgen (Testosterone) = Androgen (Testosterone) (Homo sapiens, UniProt P10275)
# Bradykinin B2 = Bradykinin B2 (Homo sapiens, UniProt P30411)
# Calcium Channel N-Type = Calcium Channel N-Type (Rattus norvegicus, UniProt Q02294)
# Dopamine D1 = Dopamine D1 (Homo sapiens, UniProt P21728)
# Dopamine D2S = Dopamine D2S (Homo sapiens, UniProt P14416)
# Dopamine D3 = Dopamine D3 (Homo sapiens, UniProt P35462)
# Endothelin ETA = Endothelin ETA (Homo sapiens, UniProt P25101)
# Endothelin ETB = Endothelin ETB (Homo sapiens, UniProt P24530)
# [1] = system: GABAA, Flunitrazepam, Central
# GABAA, Muscimol, Central = system: GABAA, Muscimol, Central
# GABAB1A = GABAB1A (Homo sapiens, UniProt Q9UBS5)
# Glucocorticoid = Glucocorticoid (Homo sapiens, UniProt P04150)
# Glutamate, Kainate = system: Glutamate, Kainate
# Glutamate, NMDA, Agonism = system: Glutamate, NMDA, Agonism
# Histamine H1 = Histamine H1 (Homo sapiens, UniProt P35367)
# Histamine H2 = Histamine H2 (Homo sapiens, UniProt P25021)
# Histamine H3 = Histamine H3 (Homo sapiens, UniProt Q9Y5N1)
# [2] = biological target: Leukotriene, Cysteinyl CysLT1 (Homo sapiens, UniProt Q9Y271)
# Melatonin MT1 = Melatonin MT1 (Homo sapiens, UniProt P48039)
# Muscarinic M2 = Muscarinic M2 (Homo sapiens, UniProt P08172)
# Muscarinic M3 = Muscarinic M3 (Homo sapiens, UniProt P20309)
# Neuropeptide Y Y1 = Neuropeptide Y Y1 (Homo sapiens, UniProt P25929)
# Nicotinic Acetylcholine = system: Nicotinic Acetylcholine
# Opiate δ1 (OP1, DOP) = Opiate δ1 (OP1, DOP) (Homo sapiens, UniProt P41143)
# Opiate κ (OP2, KOP) = Opiate κ (OP2, KOP) (Homo sapiens, UniProt P41145)
# [3] = biological target: Platelet Activating Factor (PAF) (Homo sapiens, UniProt P25105)
# Potassium Channel [KATP] = system: Potassium Channel [KATP]
# Potassium Channel hERG = Potassium Channel hERG (Homo sapiens, UniProt Q12809)
# Prostanoid EP4 = Prostanoid EP4 (Homo sapiens, UniProt P35408)
# Rolipram = system: Rolipram
# [4] = biological target: Serotonin (5-Hydroxytryptamine) 5-HT1A (Homo sapiens, UniProt P08908)
# [5] = biological target: Serotonin (5-Hydroxytryptamine) 5-HT3 (Homo sapiens, UniProt P46098)
# Sigma σ1 = Sigma σ1 (Homo sapiens, UniProt Q99720)
# Sodium Channel, Site 2 = system: Sodium Channel, Site 2
# [6] = biological target: Transporter, Dopamine (DAT) (Homo sapiens, UniProt Q01959)
# Transporter, GABA = Transporter, GABA (Rattus norvegicus, UniProt P23978)
# [7] = biological target: Transporter, Serotonin (5-Hydroxytryptamine) (SERT) (Homo sapiens, UniProt P31645)
smiles,measurement,setting,value
Cc1nnc2sc3c(NCc4ccc(C(C)(C)O)cc4)ncnc3c2c1C,% inh at 10 μM,Adenosine A1,45%
same,% inh at 10 μM,Adenosine A2A,50%
same,% inh at 10 μM,Adrenergic α1A,19%
same,% inh at 10 μM,Adrenergic α1B,9%
same,% inh at 10 μM,Adrenergic β2,6%
same,% inh at 10 μM,Androgen (Testosterone),3%
same,% inh at 10 μM,Bradykinin B2,-7%
same,% inh at 10 μM,Calcium Channel N-Type,15%
same,% inh at 10 μM,Dopamine D1,6%
same,% inh at 10 μM,Dopamine D2S,11%
same,% inh at 10 μM,Dopamine D3,1%
same,% inh at 10 μM,Endothelin ETA,7%
same,% inh at 10 μM,Endothelin ETB,8%
same,% inh at 10 μM,[1],13%
same,% inh at 10 μM,"GABAA, Muscimol, Central",5%
same,% inh at 10 μM,GABAB1A,-3%
same,% inh at 10 μM,Glucocorticoid,16%
same,% inh at 10 μM,"Glutamate, Kainate",26%
same,% inh at 10 μM,"Glutamate, NMDA, Agonism",6%
same,% inh at 10 μM,Histamine H1,5%
same,% inh at 10 μM,Histamine H2,-9%
same,% inh at 10 μM,Histamine H3,21%
same,% inh at 10 μM,[2],31%
same,% inh at 10 μM,Melatonin MT1,14%
same,% inh at 10 μM,Muscarinic M2,9%
same,% inh at 10 μM,Muscarinic M3,3%
same,% inh at 10 μM,Neuropeptide Y Y1,13%
same,% inh at 10 μM,Nicotinic Acetylcholine,-5%
same,% inh at 10 μM,"Opiate δ1 (OP1, DOP)",5%
same,% inh at 10 μM,"Opiate κ (OP2, KOP)",2%
same,% inh at 10 μM,[3],4%
same,% inh at 10 μM,Potassium Channel [KATP],-10%
same,% inh at 10 μM,Potassium Channel hERG,2%
same,% inh at 10 μM,Prostanoid EP4,22%
same,% inh at 10 μM,Rolipram,8%
same,% inh at 10 μM,[4],-8%
same,% inh at 10 μM,[5],-3%
same,% inh at 10 μM,Sigma σ1,-1%
same,% inh at 10 μM,"Sodium Channel, Site 2",23%
same,% inh at 10 μM,[6],11%
same,% inh at 10 μM,"Transporter, GABA",-3%
same,% inh at 10 μM,[7],-10%
